Assay results reported in US9682960B2 (priority 2013, dated 2017).
Several values for one entry are separate records, joined by “and”; a condition that tells them apart may be missing. Equal values may be shown once. Read-outs that look alike come from different tables or passages of the source.

Tested on: castrated (CX) immature male rats bearing a DHT implant
Conditions: 7 days; for CX + DHT Antagonistic activity % Inhibition Bulbo: bulbocavernosus muscles weight; for CX + DHT Antagonistic activity % Inhibition SV: seminal vesicles weight; for CX + DHT Antagonistic activity % Inhibition Prostate: ventral prostate weight
[1] = 0.5 mg/rat/po, listed as flutamide

Row | SMILES | CX + DHT Antagonistic activity % Inhibition Bulbo (0.5 mg/rat/po) | CX + DHT Antagonistic activity % Inhibition SV (0.5 mg/rat/po) | CX + DHT Antagonistic activity % Inhibition Prostate (0.5 mg/rat/po) | also measured
1 | Cc1c(N2C(=O)C(C)(C)N(CCCOc3ccc(-c4ccncc4)nc3)C2=S)ccc(C#N)c1Cl [EM-8827] |  |  |  | CX + DHT Antagonistic activity % Inhibition Bulbo (0.1 mg/rat po): −108 (0.1 mg/rat) %; CX + DHT Antagonistic activity % Inhibition SV (0.1 mg/rat po): 1 (0.1 mg/rat) %; CX + DHT Antagonistic activity % Inhibition Prostate (0.1 mg/rat/po): 3 (0.1 mg/rat) %
2 | CC(C)C(=O)Nc1ccc([N+](=O)[O-])c(C(F)(F)F)c1 [FLU, flutamide, reference compound] | 67.3 ± 1.6 (n = 46) % | 82.8 ± 0.7 (n = 131) % | 47.9 ± 0.6 (n = 131) % | CX + DHT Antagonistic activity % Inhibition SV [1]: 83%; CX + DHT Antagonistic activity % Inhibition Prostate [1]: 48%
3 | Cc1c(N2C(=O)N(CCCOc3ccc(-c4ccncc4)cc3F)C(C)(C)C2=O)ccc(C#N)c1Cl [EM-9297] |  |  |  | CX + DHT Antagonistic activity % Inhibition Bulbo (0.1 mg/rat po): −57 ± 2 (n = 2, 0.1 mg/rat) %; CX + DHT Antagonistic activity % Inhibition SV (0.1 mg/rat po): 37 ± 7 (n = 2, 0.1 mg/rat) %; CX + DHT Antagonistic activity % Inhibition Prostate (0.1 mg/rat/po): 31 ± 11 (n = 2, 0.1 mg/rat) %
4 | CC1(C)C(=O)N(c2ccc(C#N)c(C(F)(F)F)c2)C(=S)N1CCCOc1ccc(-c2ccncc2)cc1F [EM-8872] | 62% | 79% | 56% | 
5 | Cc1c(N2C(=O)C(C)(C)N(CCCOc3ccc(-c4cc[n+]([O-])cc4)cc3)C2=S)ccc(C#N)c1Cl [EM-8913] | −138% | −59% | 29% | 
6 | CC1(C)C(=O)N(c2ccc(C#N)c(Cl)c2)C(=S)N1CCCOc1ccc(-c2ccncc2)cc1Cl [EM-9052] | 70% | 84% | 59 ± 0% and 59% | CX + DHT Antagonistic activity % Inhibition Prostate (0.1 mg/rat/po): 21 ± 5%
7 | Cc1c(N2C(=O)C(C)(C)N(CCCOc3ccc(-c4ccc(N(C)C)nc4)c(F)c3)C2=S)ccc(C#N)c1Cl [EM-8996] | −78% | −56% | 27% | 
8 | Cc1c(N2C(=O)N(CCCOc3ccc(-c4cc[n+]([O-])cc4F)cc3)C(C)(C)C2=O)ccc(C#N)c1Cl [EM-9318] |  |  |  | CX + DHT Antagonistic activity % Inhibition Bulbo (0.1 mg/rat po): −44 ± 2 (n = 2, 0.1 mg/rat) %; CX + DHT Antagonistic activity % Inhibition SV (0.1 mg/rat po): 51 ± 13 (n = 2, 0.1 mg/rat) %; CX + DHT Antagonistic activity % Inhibition Prostate (0.1 mg/rat/po): 30 ± 5 (n = 2, 0.1 mg/rat) %
9 | Cc1c(N2C(=O)N(CCCOc3ccc(-c4cc[n+]([O-])cc4)cc3F)C(C)(C)C2=O)ccc(C#N)c1Cl [EM-9301] |  |  |  | CX + DHT Antagonistic activity % Inhibition Bulbo (0.1 mg/rat po): −19 ± 13 (n = 2, 0.1 mg/rat) %; CX + DHT Antagonistic activity % Inhibition SV (0.1 mg/rat po): 32 ± 4 (n = 2, 0.1 mg/rat) %; CX + DHT Antagonistic activity % Inhibition Prostate (0.1 mg/rat/po): 28 ± 4 (n = 2, 0.1 mg/rat) %
10 | CC1(C)C(=O)N(c2ccc(C#N)c(Cl)c2)C(=O)N1CCCOc1ccc(-c2cc[n+]([O-])cc2)cc1 [EM-9118] | 83 ± 7 (n = 2) % | 90 ± 1 (n = 2) % | 58 ± 3 (n = 2) % | 
11 | Cc1c(N2C(=O)C(C)(C)N(CCCOc3ccc(-c4ccncc4)cc3F)C2=S)ccc(C#N)c1C(F)(F)F [EM-8793] | −46% | −1% | 35% | 
12 | CC1(C)C(=O)N(c2ccc(C#N)c(C(F)(F)F)c2)C(=S)N1CCCOc1ccc2c(ccc[n+]2[O-])c1 [EM-9028] | 10% | 64% | 42% | 
13 | CC1(C)C(=O)N(c2ccc(C#N)c(C(F)(F)F)c2)C(=S)N1CCCOc1ccc(CN2CCC(O)C2)cc1 (stereo not shown) [EM-7365, reference compound] |  |  | 22% | 
14 | Cc1c(N2C(=O)C(C)(C)N(CCCOc3ccc(-c4ccncc4)cc3C(F)(F)F)C2=S)ccc(C#N)c1Cl [EM-8773] | −91% | 16% | 61% | 
15 | Cc1c(N2C(=O)C(C)(C)N(CCCOc3ccc(-c4ccnc(F)c4)cc3)C2=S)ccc(C#N)c1Cl [EM-8922] | 0% | 0% | 20% | 
16 | CC1(C)C(=O)N(c2ccc(C#N)c(C(F)(F)F)c2)C(=O)N1CCCOc1ccc(-c2cc[n+]([O-])cc2)cc1 [EM-9000] | 90% | 85% | 53% | 
17 | N#Cc1ccc(N2C(=O)N(CCCOc3ccc(-c4ccncc4)c(F)c3)C3(CCCC3)C2=O)cc1Cl [EM-9201] | 29% | 48% | 10% | 
18 | Cc1c(N2C(=O)N(CCCOc3ccc(-c4cc[n+]([O-])cc4)cc3)C(C)(C)C2=O)ccc(C#N)c1Cl [EM-9305] |  |  |  | CX + DHT Antagonistic activity % Inhibition Bulbo (0.1 mg/rat po): −45 ± 5 (n = 5, 0.1 mg/rat) %; CX + DHT Antagonistic activity % Inhibition SV (0.1 mg/rat po): 31 ± 5 (n = 5, 0.1 mg/rat) %; CX + DHT Antagonistic activity % Inhibition Prostate (0.1 mg/rat/po): 27 ± 3 (n = 5, 0.1 mg/rat) %

Row | SMILES | CX + DHT Antagonistic activity % Inhibition Bulbo (0.5 mg/rat/po) | CX + DHT Antagonistic activity % Inhibition SV (0.5 mg/rat/po) | CX + DHT Antagonistic activity % Inhibition Prostate (0.5 mg/rat/po) | also measured
19 | CC1(C)C(=O)N(c2ccc(C#N)c(Cl)c2)C(=O)N1CCCOc1ccc(-c2ccncc2)cc1F [EM-9198] | 71% | 90% | 52% | 
20 | Cc1c(N2C(=O)N(CCOc3ccc(-c4ccncc4)cc3)C(C)(C)C2=O)ccc(C#N)c1Cl [EM-9337] |  |  |  | CX + DHT Antagonistic activity % Inhibition Bulbo (0.1 mg/rat po): 3 (0.1 mg/rat) %; CX + DHT Antagonistic activity % Inhibition SV (0.1 mg/rat po): 36 (0.1 mg/rat) %; CX + DHT Antagonistic activity % Inhibition Prostate (0.1 mg/rat/po): 35 (0.1 mg/rat) %
21 | CC1(C)C(=O)N(c2ccc(C#N)c(Cl)c2)C(=O)N1CCCOc1ccc(-c2ccncc2F)cc1 [EM-9267] | 76% | 87% | 55% | 
22 | Cc1c(N2C(=O)N(Cc3ccc(-c4ccncc4)cc3)C(C)(C)C2=O)ccc(C#N)c1Cl [EM-9343] |  |  |  | CX + DHT Antagonistic activity % Inhibition Bulbo (0.1 mg/rat po): 38 (0.1 mg/rat) %; CX + DHT Antagonistic activity % Inhibition SV (0.1 mg/rat po): 64 (0.1 mg/rat) %; CX + DHT Antagonistic activity % Inhibition Prostate (0.1 mg/rat/po): 33 (0.1 mg/rat) %
23 | Cc1c(N2C(=O)N(c3ccc(-c4cccnc4)cc3)C(C)(C)C2=O)ccc(C#N)c1C(F)(F)F [EM-9342] | 98% | 96% | 60% | 
24 | CC1(C)C(=O)N(c2ccc(C#N)c(C(F)(F)F)c2)C(=S)N1CCCOc1ccc(-c2ccncc2)cc1 [EM-8841] | 65% | 85% | 57% | 
25 | Cc1c(N2C(=O)C(C)(C)N(CCCOc3ccc(-c4cncnc4)cc3)C2=S)ccc(C#N)c1Cl [EM-8685] | −110% | −18% | 15% | 
26 | Cc1c(N2C(=O)C(C)(C)N(CCCOc3ccc(-c4ccncc4)cc3C(F)(F)F)C2=S)ccc(C#N)c1C(F)(F)F [EM-8772] | −79% | 19% | 52% | 
27 | Cc1c(N2C(=O)N(CCCOc3ccc(-c4cc[n+]([O-])cc4)c(F)c3)C(C)(C)C2=O)ccc(C#N)c1Cl [EM-9254] | −47% | 53% | 45% | 
28 | CC1(C)C(=O)N(c2ccc(C#N)c(C(F)(F)F)c2)C(=O)N1Cc1ccc(-c2ccncc2)cc1 [EM-9199] | 79% | 86% | 52% | 
29 | CC1(C)C(=O)N(c2ccc(C#N)c(C(F)(F)F)c2)C(=S)N1CCCOc1ccc2ncncc2c1 [EM-9010] | 50% | 44% | 37% | 
30 | Cc1c(N2C(=O)N(CCCOc3ccc4cccnc4c3)C(C)(C)C2=O)ccc(C#N)c1Cl [EM-8786] | −265% | 35% | 51% | 
31 | CC1(C)C(=O)N(c2ccc(C#N)c(C(F)(F)F)c2)C(=S)N1CCCOc1ccc(-c2cccnc2)cc1 [EM-8840] | 42% | 80% | 62% | 
32 | CC1(C)C(=O)N(c2ccc(C#N)c(C(F)(F)F)c2)C(=S)N1CCCOc1cccc(-c2ccncc2)c1 [EM-8871] | 66% | 70% | 41% | 
33 | CC1(C)C(=O)N(c2ccc(C#N)c(Cl)c2)C(=O)N1CCCOc1ccc(-c2cc[n+]([O-])cc2)cc1Cl.Cl [EM-9288] |  |  |  | CX + DHT Antagonistic activity % Inhibition Bulbo (0.3 mg/rat po): 80 (0.3 mg/rat) %; CX + DHT Antagonistic activity % Inhibition SV (0.3 mg/rat po): 101 (0.3 mg/rat) %; CX + DHT Antagonistic activity % Inhibition Prostate (0.3 mg/rat po): 50 (0.3 mg/rat) %
34 | Cc1c(N2C(=O)N(CCCOc3ccc(-c4ccncc4F)cc3)C(C)(C)C2=O)ccc(C#N)c1Cl [EM-9311] |  |  |  | CX + DHT Antagonistic activity % Inhibition Bulbo (0.1 mg/rat po): −41 ± 12 (n = 2, 0.1 mg/rat) %; CX + DHT Antagonistic activity % Inhibition SV (0.1 mg/rat po): 40 ± 1 (n = 2, 0.1 mg/rat) %; CX + DHT Antagonistic activity % Inhibition Prostate (0.1 mg/rat/po): 26 ± 13 (n = 2, 0.1 mg/rat) %
35 | Cc1c(N2C(=O)C(C)(C)N(CCCOc3ccc(-c4ccncc4)cc3Cl)C2=S)ccc(C#N)c1C(F)(F)F [EM-8798] | 0% | 0% | 16% | 
36 | Cc1c(N2C(=O)N(CCCOc3ccc(-c4ccncc4)cc3F)C(C)(C)C2=O)ccc(C#N)c1F [EM-9204] | 66% | 91% | 62% | 
